Assay results as given in ChEMBL document CHEMBL3745630, “Cloning, characterization and anion inhibition studies of a γ-carbonic anhydrase from the Antarctic bacterium Colwellia psychrerythraea” (Bioorg Med Chem, 2016).

assay: Inhibition of Colwellia psychrerythraea gamma carbonic anhydrase expressed in Escherichia coli incubated for 15 mins prior to testing by stopped flow CO2 hydration method

Compound	Ki [mM]
O=S(=O)(O)NS(=O)(=O)O	7.9
SODIUM DIVANADATE	5.8
SODIUM PERRHENATE	7.8
SODIUM PERRUTHENATE	7.9
SODIUM STANNATE	1.8
